Measurements published in patent publication US8772480B2, “Inhibitors of PI3 kinase and/or mTOR” (priority 2009, dated 2014).

Biological target: mammalian target of rapamycin (mTOR) (Homo sapiens (Human), UniProt P42345)
Conditions: read-out: mTOR IC50

SMILES	IC50
Cc1nc(N)nc(-c2cc(CN3CCN(S(C)(=O)=O)CC3)cnc2Nc2cnc3c(c2)ncn3C)n1 [Example 203, N-(3-(4-Amino-6-Methyl-1,3,5-Triazin-2-yl)-5-((4-(Methylsulfonyl)Piperazin-1-yl)Methyl)Pyridin-2-yl)-3-Methyl-3H-Imidazo[4,5-B]Pyridin-6-Amine]	> 10 µM
COc1ccc(Nc2ncc(N3CC[C@H](CO)C3)cc2-c2nc(C)nc3[nH]cnc23)cn1 [Example 204, ((3S)-1-(6-((6-Methoxy-3-Pyridinyl)Amino)-5-(2-Methyl-9H-Purin-6-yl)-3-Pyridinyl)-3-Pyrrolidinyl)Methanol]	> 10 µM
COc1ccc(Nc2ncc(N3CC[C@H](O)C3)cc2-c2nc(C)nc3[nH]cnc23)cn1 [Example 205, (3S)-1-(6-((6-Methoxy-3-Pyridinyl)Amino)-5-(2-Methyl-9H-Purin-6-yl)-3-Pyridinyl)-3-Pyrrolidinol]	0.839 µM
COc1ccc(Nc2ncc(N3CC[C@@H](O)C3)cc2-c2nc(C)nc3[nH]cnc23)cn1 [Example 206, (3R)-1-(6-((6-Methoxy-3-Pyridinyl)Amino)-5-(2-Methyl-9H-Purin-6-yl)-3-Pyridinyl)-3-Pyrrolidinol]	0.594 µM
COc1ccc(Nc2ncc(CN3CCN(S(=O)(=O)N(C)C)CC3)cc2-c2nc(C)nc(N)n2)cn1 [Example 211, 4-((5-(4-Amino-6-Methyl-1,3,5-Triazin-2-yl)-6-((6-Methoxy-3-Pyridinyl)Amino)-3-Pyridinyl)Methyl)-N,N-Dimethyl-1-Piperazinesulfonamide]	> 10 µM
COc1ccc(Nc2ncc(CN3CCC(O)CC3)cc2-c2nc(C)nc(N)n2)cn1 [Example 215, 1-((5-(4-Amino-6-Methyl-1,3,5-Triazin-2-yl)-6-(6-Methoxypyridin-3-Ylamino)Pyridin-3-yl)Methyl)Piperidin-4-ol]	> 10 µM
COc1ccc(Nc2ncc(CN3CC[C@@H](CO)C3)cc2-c2nc(C)nc(N)n2)cn1 [Example 217, (R)-(1-((5-(4-Amino-6-Methyl-1,3,5-Triazin-2-yl)-6-(6-Methoxypyridin-3-Ylamino)Pyridin-3-yl)Methyl)Pyrrolidin-3-yl)Methanol]	> 10 µM
COc1ccc(Nc2ncc(CN3CCOC[C@@H]3C)cc2-c2nc(C)nc(N)n2)cn1 [Example 219, (S)-4-(2-(6-Methoxypyridin-3-Ylamino)-5-((3-Methylmorpholino)Methyl)Pyridin-3-yl)-6-Methyl-1,3,5-Triazin-2-Amine]	> 10 µM
COc1ccc(Nc2ncc(CN3CCC3)cc2-c2nc(C)nc(N)n2)cn1 [Example 220, 4-(5-(Azetidin-1-Ylmethyl)-2-(6-Methoxypyridin-3-Ylamino)Pyridin-3-yl)-6-Methyl-1,3,5-Triazin-2-Amine]	> 10 µM
COc1ccc(Nc2ncc(CN3CCCC3)cc2-c2nc(C)nc(N)n2)cn1 [Example 221, 4-(2-(6-Methoxypyridin-3-Ylamino)-5-(Pyrrolidin-1-Ylmethyl)Pyridin-3-yl)-6-Methyl-1,3,5-Triazin-2-Amine]	> 10 µM
COc1ccc(Nc2ncc(CN3CCCCC3)cc2-c2nc(C)nc(N)n2)cn1 [Example 222, 4-(2-(6-Methoxypyridin-3-Ylamino)-5-(Piperidin-1-Ylmethyl)Pyridin-3-yl)-6-Methyl-1,3,5-Triazin-2-Amine]	> 10 µM
COc1ccc(Nc2ncc(CN3CC(S(C)(=O)=O)C3)cc2-c2nc(C)nc(N)n2)cn1 [Example 223, 4-(2-(6-Methoxypyridin-3-Ylamino)-5-((3-(Methylsulfonyl)Azetidin-1-yl)Methyl)Pyridin-3-yl)-6-Methyl-1,3,5-Triazin-2-Amine]	> 10 µM
COc1ccc(Nc2ncc(CN3CCC(S(C)(=O)=O)CC3)cc2-c2nc(C)nc(N)n2)cn1 [Example 224, 4-(2-(6-Methoxypyridin-3-Ylamino)-5-((4-(Methylsulfonyl)Piperidin-1-yl)Methyl)Pyridin-3-yl)-6-Methyl-1,3,5-Triazin-2-Amine]	> 10 µM
COc1ccc(Nc2ncc(CNCCO)cc2-c2nc(C)nc(N)n2)cn1 [Example 225, 2-((5-(4-Amino-6-Methyl-1,3,5-Triazin-2-yl)-6-(6-Methoxypyridin-3-Ylamino)Pyridin-3-yl)Methylamino)Ethanol]	> 10 µM
COc1ccc(Nc2ncc(CN[C@H](C)CO)cc2-c2nc(C)nc(N)n2)cn1 [Example 226, (R)-2-((5-(4-Amino-6-Methyl-1,3,5-Triazin-2-yl)-6-(6-Methoxypyridin-3-Ylamino)Pyridin-3-yl)Methylamino)Propan-1-ol]	> 10 µM
COCCNCc1cnc(Nc2ccc(OC)nc2)c(-c2nc(C)nc(N)n2)c1 [Example 227, 4-(5-((2-Methoxyethylamino)Methyl)-2-(6-Methoxypyridin-3-Ylamino)Pyridin-3-yl)-6-Methyl-1,3,5-Triazin-2-Amine]	> 10 µM
COc1ccc(Nc2ncc(CN3CC(O)C3)cc2-c2nc(C)nc(N)n2)cn1 [Example 229, 1-((5-(4-Amino-6-Methyl-1,3,5-Triazin-2-yl)-6-(6-Methoxypyridin-3-Ylamino)Pyridin-3-yl)Methyl)Azetidin-3-ol]	> 10 µM

SMILES	IC50
COc1ccc(Nc2ncc(CN3CC4(C3)NC(=O)NC4=O)cc2-c2nc(C)nc(N)n2)cn1 [Example 230, 2-((5-(4-Amino-6-Methyl-1,3,5-Triazin-2-yl)-6-(6-Methoxypyridin-3-Ylamino)Pyridin-3-yl)Methyl)-2,5,7-Triazaspiro[3.4]Octane-6,8-Dione]	> 10 µM
COc1ccc(Nc2ncc(CN3CC(N)C3)cc2-c2nc(C)nc(N)n2)cn1 [Example 231, 4-(5-((3-Aminoazetidin-1-yl)Methyl)-2-(6-Methoxypyridin-3-Ylamino)Pyridin-3-yl)-6-Methyl-1,3,5-Triazin-2-Amine]	> 10 µM
COc1ccc(Nc2ncc(CN3CC(NS(C)(=O)=O)C3)cc2-c2nc(C)nc(N)n2)cn1 [Example 232, N-(1-((5-(4-Amino-6-Methyl-1,3,5-Triazin-2-yl)-6-(6-Methoxypyridin-3-Ylamino)Pyridin-3-yl)Methyl)Azetidin-3-yl)Methanesulfonamide]	3.74 µM
COc1ccc(Nc2ncc(CN3CCn4ncnc4C3)cc2-c2nc(C)nc(N)n2)cn1 [Example 233, 4-(5-((5,6-Dihydro-[1,2,4]Triazolo[1,5-A]Pyrazin-7(8H)-yl)Methyl)-2-(6-Methoxypyridin-3-Ylamino)Pyridin-3-yl)-6-Methyl-1,3,5-Triazin-2-Amine]	4.8 µM
COc1ccc(Nc2ncc(C(O)c3cc(Br)ccc3S(=O)(=O)N(C)C)cc2-c2nc(C)nc(N)n2)cn1 (stereo not shown) [Example 235, 2-((5-(4-Amino-6-Methyl-1,3,5-Triazin-2-yl)-6-(6-Methoxypyridin-3-Ylamino)Pyridin-3-yl)(Hydroxy)Methyl)-4-Bromo-N,N-Dimethylbenzenesulfonamide]	0.726 µM
COc1ccc(Nc2ncc(C(O)c3ccc(S(=O)(=O)N(C)C)cc3)cc2-c2nc(C)nc(N)n2)cn1 (stereo not shown) [Example 236, 4-((5-(4-Amino-6-Methyl-1,3,5-Triazin-2-yl)-6-(6-Methoxypyridin-3-Ylamino)Pyridin-3-yl)(Hydroxy)Methyl)-N,N-Dimethylbenzenesulfonamide]	4.77 µM
COc1ccc(Nc2ncc(C(N)c3ccc(S(=O)(=O)N(C)C)cc3)cc2-c2nc(C)nc(N)n2)cn1 (stereo not shown) [Example 237, 4-(Amino(5-(4-Amino-6-Methyl-1,3,5-Triazin-2-yl)-6-(6-Methoxypyridin-3-Ylamino)Pyridin-3-yl)Methyl)-N,N-Dimethylbenzenesulfonamide]	> 10 µM
COc1ccc(Nc2nc3ccccc3cc2-c2nc(C)nc(N)n2)cn1 [Example 238, 3-(4-Amino-6-Methyl-1,3,5-Triazin-2-yl)-N-(6-Methoxypyridin-3-yl)Quinolin-2-Amine]	> 10 µM
COc1ccc(Nc2ccccc2-c2nc(C)nc(N)n2)cn1 [Example 239, 4-(2-(6-Methoxypyridin-3-Ylamino)Phenyl)-6-Methyl-1,3,5-Triazin-2-Amine]	> 10 µM
Cc1nc(N)nc(-c2cc(CN3CCN(S(C)(=O)=O)CC3)cnc2Nc2ccc3scnc3c2)n1 [Example 240, N-(3-(4-Amino-6-Methyl-1,3,5-Triazin-2-yl)-5-((4-(Methylsulfonyl)Piperazin-1-yl)Methyl)Pyridin-2-yl)Benzo[D]Thiazol-5-Amine]	0.849 µM
Cc1nc(N)nc(-c2cc(CN3CCN(S(C)(=O)=O)CC3)cnc2Nc2ccc3ncsc3c2)n1 [Example 241, N-(3-(4-Amino-6-Methyl-1,3,5-Triazin-2-yl)-5-((4-(Methylsulfonyl)Piperazin-1-yl)Methyl)Pyridin-2-yl)Benzo[D]Thiazol-6-Amine]	> 10 µM
Cc1nc(N)nc(-c2cc(CN3CCN(S(C)(=O)=O)CC3)cnc2Nc2cn[nH]c2)n1 [Example 243, 4-(2-(1H-Pyrazol-4-Ylamino)-5-((4-(Methylsulfonyl)Piperazin-1-yl)Methyl)Pyridin-3-yl)-6-Methyl-1,3,5-Triazin-2-Amine]	1.75 µM
Cc1nc(N)nc(-c2cc(CN3CCN(S(C)(=O)=O)CC3)cnc2Nc2cc[nH]n2)n1 [Example 244, 4-(2-(1H-Pyrazol-3-Ylamino)-5-((4-(Methylsulfonyl)Piperazin-1-yl)Methyl)Pyridin-3-yl)-6-Methyl-1,3,5-Triazin-2-Amine]	0.389 µM
Cc1nc(N)nc(-c2cc(CN3CCN(S(C)(=O)=O)CC3)cnc2Nc2cc(F)cc3[nH]ncc23)n1 [Example 245, N-(3-(4-Amino-6-Methyl-1,3,5-Triazin-2-yl)-5-((4-(Methylsulfonyl)Piperazin-1-yl)Methyl)Pyridin-2-yl)-6-Fluoro-1H-Indazol-4-Amine]	> 10 µM
COc1ncc(Nc2ncccc2-c2nc(C)nc(N)n2)cc1F [Example 246, 4-(2-(5-Fluoro-6-Methoxypyridin-3-Ylamino)Pyridin-3-yl)-6-Methyl-1,3,5-Triazin-2-Amine]	> 10 µM
COc1ccc(Nc2ncc(-c3cnn(C)c3)cc2-c2nc(C)nc(N)n2)cn1 [Example 247, 4-(2-(6-Methoxypyridin-3-Ylamino)-5-(1-Methyl-1H-Pyrazol-4-yl)Pyridin-3-yl)-6-Methyl-1,3,5-Triazin-2-Amine]	> 10 µM
Cc1nc(N)nc(-c2cccnc2Nc2ccc(F)c(F)c2)n1 [Example 248]	> 10 µM
